The target in one test is NK1 (Homo sapiens, UniProt P25103). Description: Signal transduction (ST), intracellular Ca++ (FLIPR), NK1 antagonistic activity.
For a further test, the target named is NK3 (Homo sapiens, UniProt P29371). Description: Signal transduction (ST), intracellular Ca++ (FLIPR), NK3.
Another test has as its target NK2 (Homo sapiens, UniProt P21452). Nature of the test: Signal transduction (ST), intracellular Ca++ (FLIPR), NK2. Here is the method:
[The procedure below names another target; the source lists this target under the same test.] This test evaluates in vitro functional NK1 antagonistic activity. For the measurements of intracellular Ca^++ concentrations the cells were grown on 96-well (black wall/transparent bottom) plates from Costar for 2 days until they reached confluence. The cells were loaded with 2 μM Fluo3 in DMEM containing 0.1% BSA and 2.5 mM probenecid for 1 h at 37° C. They were washed 3× with a Krebs buffer (140 mM NaCl, 1 mM MgCl2×6H2O, 5 mM KCl, 10 mM glucose, 5 mM HEPES; 1.25 mM CaCl2; pH 7.4) containing 2.5 mM probenecid and 0.1% BSA (Ca^++-buffer). The cells were preincubated with a concentration range of antagonists for 20 min at RT and Ca^++-signals after addition of the agonists were measured in a Fluorescence Image Plate Reader (FLIPR from Molecular Devices, Crawley, England). The peak of the Ca^++-transient was considered as the relevant signal and the mean values of corresponding wells were analysed as described below.
The sigmoidal dose response curves were analysed by computerised curve-fitting, using the GraphPad Program. The EC50-value of a compound is the effective dose showing 50% of maximal effect. For mean curves the response to the agonist with the highest potency was normalised to 100%. For antagonist responses the IC50-value was calculated using non-linear regression.
The last columns indicates—without being limited therefore—for which the compounds might be most suitable. Of course, since for some neurokinin receptors no data was determined, it is obvious that these compounds might be attributed to another suitable use.

Protein sequences, listed by entry. Tags and fused reporters are not part of them.
UniProt P25103, whole entry: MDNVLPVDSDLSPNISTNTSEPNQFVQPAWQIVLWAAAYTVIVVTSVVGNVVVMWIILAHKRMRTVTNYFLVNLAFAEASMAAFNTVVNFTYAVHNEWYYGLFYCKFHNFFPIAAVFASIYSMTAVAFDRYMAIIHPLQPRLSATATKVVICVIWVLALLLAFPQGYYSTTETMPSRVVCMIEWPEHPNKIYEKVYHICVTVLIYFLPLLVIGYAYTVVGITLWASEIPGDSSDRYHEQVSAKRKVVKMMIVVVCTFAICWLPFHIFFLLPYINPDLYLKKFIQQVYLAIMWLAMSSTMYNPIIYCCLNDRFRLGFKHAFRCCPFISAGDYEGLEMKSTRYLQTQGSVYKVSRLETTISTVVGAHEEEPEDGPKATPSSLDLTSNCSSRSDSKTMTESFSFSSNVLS
UniProt P29371, whole entry: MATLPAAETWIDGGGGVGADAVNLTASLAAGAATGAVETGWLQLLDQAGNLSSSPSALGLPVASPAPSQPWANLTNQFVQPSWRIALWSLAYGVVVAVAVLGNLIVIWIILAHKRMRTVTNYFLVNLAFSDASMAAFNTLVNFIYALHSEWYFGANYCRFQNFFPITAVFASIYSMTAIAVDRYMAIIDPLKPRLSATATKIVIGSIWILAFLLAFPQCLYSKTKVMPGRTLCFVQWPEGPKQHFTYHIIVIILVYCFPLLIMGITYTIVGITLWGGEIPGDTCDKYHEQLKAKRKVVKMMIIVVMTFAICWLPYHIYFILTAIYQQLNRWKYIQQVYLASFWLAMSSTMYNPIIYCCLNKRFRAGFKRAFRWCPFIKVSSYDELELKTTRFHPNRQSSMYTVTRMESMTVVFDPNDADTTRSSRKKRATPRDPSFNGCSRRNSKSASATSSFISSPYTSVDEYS
UniProt P21452, whole entry: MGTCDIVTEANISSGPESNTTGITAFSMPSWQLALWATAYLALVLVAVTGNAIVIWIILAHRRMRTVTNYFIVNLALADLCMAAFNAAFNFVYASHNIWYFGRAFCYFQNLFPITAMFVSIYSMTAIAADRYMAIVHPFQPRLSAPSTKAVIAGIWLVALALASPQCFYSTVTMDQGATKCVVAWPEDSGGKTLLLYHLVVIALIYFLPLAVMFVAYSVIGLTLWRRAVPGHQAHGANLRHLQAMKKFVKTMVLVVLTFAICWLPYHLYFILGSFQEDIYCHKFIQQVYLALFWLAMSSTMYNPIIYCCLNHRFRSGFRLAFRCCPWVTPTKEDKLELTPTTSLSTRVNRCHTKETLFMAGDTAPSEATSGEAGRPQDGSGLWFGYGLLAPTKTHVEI

Experimental findings from patent US7795261B2, “Substituted 1-piperidin-4-yl-4-pyrrolidin-3-yl-piperazine derivatives and their use as neurokinin antagonists” (Janssen Pharmaceutica NV, priority 2002, dated 2010) are described below.

In the case of `CC(C)(C)C(=O)N1CC[C@@H](N2CCN([C@H]3CCN(C(=O)c4cc(C(F)(F)F)cc(C(F)(F)F)c4)[C@H](Cc4ccccc4)C3)CC2)C1`, on NK1, the “pIC50 NK1” value is listed as 8.5. Also, the “pIC50 NK3” value at NK3 worked out at 5.8. The “pIC50 NK2” value against NK2 came to 5.8.

Take `O=C(C1CCOC1)N1CCC(N2CCN([C@H]3CCN(C(=O)c4cc(C(F)(F)F)cc(C(F)(F)F)c4)[C@H](Cc4ccc(Cl)c(Cl)c4)C3)CC2)C1` (some centres unmarked): the “pIC50 NK1” value against NK1 was 8.4. Also, the “pIC50 NK3” value against NK3 came out at 6.4. In addition, the “pIC50 NK2” value on NK2 is 5.9.

Regarding `O=C(c1cc(C(F)(F)F)cc(C(F)(F)F)c1)N1CC[C@H](N2CCN([C@H]3CCNC3)CC2)C[C@H]1Cc1ccc(Cl)c(Cl)c1`, the “pIC50 NK1” value at NK1 was 8.0. In addition, on NK2, the “pIC50 NK2” value worked out at 5.6.

For the compound `CC(C)(C)OC(=O)N1CC[C@H](N2CCN([C@H]3CCN(C(=O)c4cc(C(F)(F)F)cc(C(F)(F)F)c4)[C@H](Cc4ccc(Cl)c(Cl)c4)C3)CC2)C1`, at NK1, the “pIC50 NK1” value turned out to be 7.4. Besides, the “pIC50 NK3” value against NK3 stood at 5.5. The “pIC50 NK2” value against NK2 amounted to 5.5.

For the compound `CC(C)(C)C(=O)N1CC[C@H](N2CCN([C@H]3CCN(C(=O)c4cc(C(F)(F)F)cc(C(F)(F)F)c4)[C@H](Cc4ccccc4)C3)CC2)C1`, the “pIC50 NK1” value against NK1 stood at 7.9. Also, the “pIC50 NK3” value on NK3 was 6.0. For the same compound, the “pIC50 NK2” value against NK2 is on record as 5.5.
